Measured values published in US8637508B2, “Heterocyclic derivatives and their use in the treatment of neurological disorders” (Novartis AG, priority 2011, dated 2014).

By UniProt entry, the sequences of proteins in these tests, tags left out. Residues count along the entry.
UniProt Q9Y5Z0, 63-473: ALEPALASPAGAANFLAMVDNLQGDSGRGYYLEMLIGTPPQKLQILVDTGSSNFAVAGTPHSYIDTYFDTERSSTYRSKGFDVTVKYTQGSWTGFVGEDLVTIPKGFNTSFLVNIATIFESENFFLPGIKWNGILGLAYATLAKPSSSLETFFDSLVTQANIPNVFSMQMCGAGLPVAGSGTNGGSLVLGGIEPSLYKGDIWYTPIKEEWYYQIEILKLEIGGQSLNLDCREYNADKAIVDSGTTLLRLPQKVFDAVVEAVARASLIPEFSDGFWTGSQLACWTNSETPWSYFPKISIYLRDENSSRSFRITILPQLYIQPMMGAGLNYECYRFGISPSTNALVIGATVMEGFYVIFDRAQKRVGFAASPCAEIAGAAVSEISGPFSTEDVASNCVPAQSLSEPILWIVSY
UniProt P56817, 46-457: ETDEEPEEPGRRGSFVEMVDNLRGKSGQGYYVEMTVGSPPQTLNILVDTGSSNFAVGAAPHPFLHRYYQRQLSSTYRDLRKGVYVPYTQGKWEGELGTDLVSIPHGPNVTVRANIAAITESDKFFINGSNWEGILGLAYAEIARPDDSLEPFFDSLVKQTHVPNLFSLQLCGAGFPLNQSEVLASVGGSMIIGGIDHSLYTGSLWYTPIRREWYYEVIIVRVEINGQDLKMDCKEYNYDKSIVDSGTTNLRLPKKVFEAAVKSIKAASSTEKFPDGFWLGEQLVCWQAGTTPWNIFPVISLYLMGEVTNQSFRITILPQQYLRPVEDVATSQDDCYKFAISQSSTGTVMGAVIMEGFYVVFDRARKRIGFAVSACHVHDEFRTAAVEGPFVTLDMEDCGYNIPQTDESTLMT

Assays:
human BACE-2 = human BACE-2 (Homo sapiens (Human), UniProt Q9Y5Z0); test: Test 2: Inhibition of human BACE-2; format: biochemical; settings: mean IC50, recombinant BACE-2, acetate buffer pH 4.5, fluorescence-quenched peptide substrate
Source text: Test 2: Inhibition of Human BACE-2

human BACE-1 = human BACE-1 (Homo sapiens (Human), UniProt P56817); test: Test 1: Inhibition of human BACE-1

| Structure (SMILES) | pIC50 (human BACE-2) | pIC50 (human BACE-1) |
| --- | --- | --- |
| C[C@@]1(c2cccc(NC(=O)c3ccc(C#N)cn3)n2)CO[C@@](C)(C(F)(F)F)C(N)=N1 [Example 10, 5-Cyano-pyridine-2-carboxylic acid [6-((3R,6R)-5-amino-3,6-dimethyl-6-trifluoromethyl-3,6-dihydro-2H-[1,4]oxazin-3-yl)-pyridin-2-yl]-amide] | 7.00 | – |
| [2H]c1nc(C(=O)Nc2cc(C3(CF)COCC(N)=N3)ccn2)c(C([2H])([2H])[2H])c([2H])c1Cl (centres unmarked) [Example 13, 5-{2-[(5-Chloro-4,6-dideutero-3-trideuteromethyl-pyridine-2-carbonyl)-amino]-pyridin-4-yl}-5-fluoromethyl-5,6-dihydro-2H-[1,4]oxazin-3-yl-ammonium acetate] | – | 5.43 |

pIC50: −log10 of the molar value.
